Results published in ChEMBL document CHEMBL4325923, “Analogues of the Lignan Pinoresinol as Novel Lead Compounds for P-glycoprotein (P-gp) Inhibitors” (ACS Med Chem Lett, 2018).

The chains behind the UniProt entries cited, without tags or fusion partners.
UniProt P08183, whole entry: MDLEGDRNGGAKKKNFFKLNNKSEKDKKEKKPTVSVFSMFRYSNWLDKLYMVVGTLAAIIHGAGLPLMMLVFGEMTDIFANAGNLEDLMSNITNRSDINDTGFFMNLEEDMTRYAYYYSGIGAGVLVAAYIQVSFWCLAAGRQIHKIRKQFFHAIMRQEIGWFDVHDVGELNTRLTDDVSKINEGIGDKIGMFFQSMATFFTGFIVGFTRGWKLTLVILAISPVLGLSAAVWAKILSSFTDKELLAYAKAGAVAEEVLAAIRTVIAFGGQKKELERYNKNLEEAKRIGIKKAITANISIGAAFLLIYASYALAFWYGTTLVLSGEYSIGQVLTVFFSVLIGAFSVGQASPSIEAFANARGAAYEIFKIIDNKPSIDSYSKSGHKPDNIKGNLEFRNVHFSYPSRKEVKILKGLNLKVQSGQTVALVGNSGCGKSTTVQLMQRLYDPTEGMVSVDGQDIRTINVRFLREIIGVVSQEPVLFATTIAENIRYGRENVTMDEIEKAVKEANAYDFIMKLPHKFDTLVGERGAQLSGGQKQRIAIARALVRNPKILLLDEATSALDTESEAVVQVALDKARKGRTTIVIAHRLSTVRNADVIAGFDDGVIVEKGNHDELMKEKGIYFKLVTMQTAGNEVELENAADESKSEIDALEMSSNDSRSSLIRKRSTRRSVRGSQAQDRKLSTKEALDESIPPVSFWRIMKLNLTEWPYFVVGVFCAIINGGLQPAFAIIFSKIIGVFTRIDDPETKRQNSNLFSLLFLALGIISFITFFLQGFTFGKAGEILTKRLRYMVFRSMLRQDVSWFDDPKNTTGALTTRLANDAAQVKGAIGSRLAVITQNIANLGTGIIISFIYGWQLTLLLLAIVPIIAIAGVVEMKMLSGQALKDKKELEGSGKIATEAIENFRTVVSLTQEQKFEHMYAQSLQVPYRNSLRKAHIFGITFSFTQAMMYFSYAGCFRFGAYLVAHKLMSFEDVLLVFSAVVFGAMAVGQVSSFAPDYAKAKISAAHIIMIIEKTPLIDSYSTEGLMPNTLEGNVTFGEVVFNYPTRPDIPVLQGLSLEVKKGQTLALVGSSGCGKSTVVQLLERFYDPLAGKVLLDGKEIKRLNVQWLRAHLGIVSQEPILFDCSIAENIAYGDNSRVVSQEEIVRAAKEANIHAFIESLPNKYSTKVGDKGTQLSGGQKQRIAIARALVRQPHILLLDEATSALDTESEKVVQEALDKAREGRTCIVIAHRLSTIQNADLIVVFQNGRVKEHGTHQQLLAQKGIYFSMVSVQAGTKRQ

Target: ATP-dependent translocase ABCB1 (Homo sapiens, UniProt P08183)
Assay: Inhibition of P-gp-mediated doxorubicin efflux in human Lucena 1 cells assessed as ratio of doxorubicin fluorescence intensity in presence of compound to doxorubicin fluorescence intensity in absence of compound at 6.25 uM preincubated for 1 hr followed by doxorubicin addition measured after 1 hr by flow cytometry
Format: cell-based

- Ratio: 1.05
Structure (SMILES): CC/C(=C(\c1ccccc1)c1ccc(OCCN(C)C)cc1)c1ccccc1 [TAMOXIFEN]
